Source: US5385885A, “Inhibition of smooth muscle cell proliferation by antistasin and tick anticoagulant peptide” (priority 1991, dated 1995)

Tested on: rat aortic smooth muscle cells
Test: Mitogenic activity of blood coagulation factors on smooth muscle cells (3H-thymidine incorporation)
Assay type: cell-based, Wistar rats
Settings: FIG. 1, 10 nM coagulation factor, 24 h
Experimental: Primary smooth muscle cell cultures were prepared from the thoracic and abdominal aorta of 2-3 month old Wistar rats essentially using the procedure of Reilly, C. F. (1990) J. Cell Physiol. 142,342 (1990). After removing as much fat and adherent adventitia as possible with scissors and forceps, the tissue was finely minced, enzymatically dissociated with successive 37° C. incubations in HBSS containing collagenase (Sigma, 0.5 mg/ml for 15 min.), then elastase (Sigma, 0.125 mg/ml for 30 min.) and again collagenase (60 min.). […] Cells were grown in Dulbecco's Minimal Essential Medium (DMEM) containing 10% fetal bovine serum (FBS) with antibiotics. […]
The prepared rat smooth muscle cells were seeded in Falcon 24 multiwell plates (10^5 cells/well) and cultured at 37° C., in a 5% CO2 atmosphere in 1 ml DMEM containing 10% FBS. […] The cells were washed twice with cold phosphate buffered saline (PBS), treated twice with 5% trichloroacetic acid (TCA) for 5 min., dissolved with 0.25N NaOH (0.4 ml) incubated at 37° C. for 60 min., mixed with 5 ml Ecolume (ICN Biomedicals, Costa Mesa, Calif.), and their radioactivity determined in a scintillation counter. […] Smooth muscle cell mitogenic activity produced by exogenous agents is expressed as % relative mitogenic activity which is defined as: [formula] […]

Q: For “human factor X: human coagulation factor X [reference compound]”, which “% relative mitogenic activity above control” value is on record?
A: about 58%
